Test: Buffering capacity dB/dpH calculated from ionization constant
Settings: 0.1 g per liter triethanolamine, pH raised from 6.8 to 9; calculated from equation

## OCCN(CCO)CCO
  buffering capacity dB/dpH: 0.00011

— patent publication US6491840B1, “Polymer compositions having specified PH for improved dispensing and improved stability of wrinkle reducing compositions and methods of use” (The Procter & Gamble Company, priority 2000, dated 2002)
